Article PMC5668925 (Biochemistry and Biophysics Reports, 2015)

Target: T1, WT (SfTre1, S. frugiperda midgut soluble trehalase, recombinant) (Spodoptera frugiperda, UniProt Q0ZIF5)
T1 sequence (Q0ZIF5 24-587): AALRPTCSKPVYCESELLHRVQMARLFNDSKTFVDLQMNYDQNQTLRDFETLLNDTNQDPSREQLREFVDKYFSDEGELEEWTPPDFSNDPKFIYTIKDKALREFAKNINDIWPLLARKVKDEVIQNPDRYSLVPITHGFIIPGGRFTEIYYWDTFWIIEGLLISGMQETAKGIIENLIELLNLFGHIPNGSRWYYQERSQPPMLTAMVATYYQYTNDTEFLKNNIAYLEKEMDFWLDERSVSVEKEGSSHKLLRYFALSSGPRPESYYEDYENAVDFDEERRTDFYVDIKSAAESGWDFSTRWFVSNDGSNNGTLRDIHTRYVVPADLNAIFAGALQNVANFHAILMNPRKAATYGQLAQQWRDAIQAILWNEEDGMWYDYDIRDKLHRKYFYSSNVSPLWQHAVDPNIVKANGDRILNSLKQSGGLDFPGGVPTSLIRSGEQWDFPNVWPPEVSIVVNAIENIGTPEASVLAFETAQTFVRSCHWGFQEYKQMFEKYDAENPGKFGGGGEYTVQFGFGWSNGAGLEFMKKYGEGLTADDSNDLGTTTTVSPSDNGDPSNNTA
Assay: Sypro Orange extrinsic fluorescence change
Type: binding
Settings: 20 mM gentiobiose; pH 6.0, 30 °C

## OC[C@H]1O[C@@H](OC[C@H]2OC(O)[C@H](O)[C@@H](O)[C@@H]2O)[C@H](O)[C@@H](O)[C@@H]1O (stereo partly shown) [gentiobiose]
  Sypro Orange extrinsic fluorescence change: WT is affected only by glucose and gentiobiose
